Laboratory results as given in patent US10695346B2, “4,6-pyrimidinylene derivatives and uses thereof” (Dana-Farber Cancer Institute, Inc., priority 2015, dated 2020).

Target: T1, PIP4K2A (Homo sapiens, UniProt P48426)
T1 sequence (P48426 1-406): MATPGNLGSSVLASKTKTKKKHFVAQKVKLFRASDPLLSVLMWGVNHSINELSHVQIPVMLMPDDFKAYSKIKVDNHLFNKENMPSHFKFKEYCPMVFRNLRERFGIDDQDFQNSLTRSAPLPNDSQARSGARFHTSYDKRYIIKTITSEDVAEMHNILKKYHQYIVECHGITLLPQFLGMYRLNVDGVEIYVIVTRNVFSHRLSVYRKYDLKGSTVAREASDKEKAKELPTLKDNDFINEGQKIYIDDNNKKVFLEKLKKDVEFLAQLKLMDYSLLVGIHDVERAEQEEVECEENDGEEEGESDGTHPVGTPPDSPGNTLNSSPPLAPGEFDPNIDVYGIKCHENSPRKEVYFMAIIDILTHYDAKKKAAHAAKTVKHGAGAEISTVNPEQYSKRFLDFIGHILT
Experiment: ADP-GLO assay on PIP4K2A
Type: biochemical
Description: After a further incubation of 40 minutes, 40 μl of Kinase Detection Buffer was added. After a further incubation of 40 min, the […] was read on […] ENVISION for 1 sec/well.

- IC50: 0.06 µM
SMILES: CN(C)CC=CC(=O)Nc1ccc(C(=O)Nc2cccc(Nc3cc(-c4c[nH]c5ccccc45)ncn3)c2)cc1 (stereo in doubt) [THZ-CE-A-4-2, (Z)—N-(3-((6-(1H-indol-3-yl)pyrimidin-4-yl)amino)phenyl)-4-(4-(dimethylamino)but-2-enamido)benzamide]
